# Measured affinities in a library of Ab-14 light chain variants

Reference: Engelhart et al. 2022, doi:10.1038/s41597-022-01779-4. File: FLAb, binding data.

The target is the same throughout: PDVDLGDISGINAS, from the HR2 region of SARS-CoV-2 spike.

Ab-14 is the parent antibody, in scFv form: VH, then a (GGGGS)3 linker, then VL. The heavy chain is unchanged in all variants.
VH: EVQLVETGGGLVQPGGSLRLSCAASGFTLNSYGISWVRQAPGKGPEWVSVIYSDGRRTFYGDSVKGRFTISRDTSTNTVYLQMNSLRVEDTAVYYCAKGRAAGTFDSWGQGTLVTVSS
VL: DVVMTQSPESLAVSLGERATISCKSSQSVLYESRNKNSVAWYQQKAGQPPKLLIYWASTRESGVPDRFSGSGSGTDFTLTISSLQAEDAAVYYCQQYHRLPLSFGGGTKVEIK

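AAYL50 was designed without a model: most single CDR substitutions and a random sample of double and triple ones. AlphaSeq pools MATa yeast showing the antibodies with MATalpha yeast showing the peptide. Pairs that bind mate more often; barcode pairs of the diploids are counted by sequencing. Each replicate has its own calibration line, from reference interactions of the BCL2 family. Each pool was mated in three replicate cultures.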

Each variant is given by its three light chain CDRs, as the data file delimits them; those of the parent are KSSQSVLYESRNKNSVA, WASTRES, QQYHRLPLS. All variants listed here change W56 of the VL, counted from its first residue. Each Kd is an estimate from the mating assay, the geometric mean of the replicates in which the pair was seen; lower is stronger. "no signal" means that the variant was in the library but no mating with the target was seen in any replicate; the authors take this as a sign of poor binding, and no number exists. Background: pairings of library AAYL50 with three empty control strains gave a value in 18% of cases (median 15 µM, 5th percentile 970 nM). Values in that range, when seen in few replicates, are hard to tell from nonspecific mating.

| CDR-L1 | CDR-L2 | CDR-L3 | Kd (apparent) | seen in |
|---|---|---|---|---|
| KSSQSVLYESRNKNSVA | QAGTRES | QQEHRLPLS | 5.3 nM | 3/3 |
| KSSQSVLYESRNKNSVK | TAYTRES | QQYHRLPLS | 47 µM | 2/3 |
| KSSDSVLYESRNKNSVA | AASTRES | QNYHRLPLS | 33 nM | 3/3 |
| KSSQSVLYESRNKNSVA | QASLRES | QMYHRLPLS | 33 nM | 3/3 |
| KSSQSVLYESRNKNSVA | CASGRES | QQYHRCPLS | no signal | 0/3 |
| KSSQSVLYESRNKNSVA | YASTRES | QQYVRLRLS | no signal | 0/3 |
| KSSQSVLYEVRNKNSVA | VAQTRES | QQYHRLPLS | 30 µM | 1/3 |
| KSSQSVLYESRNKNKVA | VASTRES | QEYHRLPLS | no signal | 0/3 |
| KSSQSVLYESRNKNSVA | EASTRES | QQYHRHPLS | 1.1 nM | 3/3 |
| KSSQSVLYESRNKNSVA | MASTRES | QQEHFLPLS | no signal | 0/3 |
| KSSQSVLYESRNKNSVD | AASTRES | QQYHRLPLS | 470 nM | 1/3 |
| KSSQSVLYESRNKNSVA | YASTRES | QQYHREPSS | 30 µM | 1/3 |
| KSSQSVLYESRPKNSVA | IASTRES | QQYHRLPLS | 1.6 µM | 2/3 |
| SSSQSVLYESRNKNSVA | FAPTRES | QQYHRLPLS | 53 µM | 2/3 |
| KSIQSVRYESRNKNSVA | EASTRES | QQYHRLPLS | 530 pM | 3/3 |
| KSSQSVLYESRNKNCVA | YASLRES | QQYHRLPLS | 520 nM | 3/3 |
| KSSQSVLYESRNKVSVA | HANTRES | QQYHRLPLS | 31 nM | 3/3 |
| KSSQSVMYESNNKNSVA | NASTRES | QQYHRLPLS | 1.5 nM | 3/3 |
| KSSQLVLYESRNKNGVA | DASTRES | QQYHRLPLS | 1.1 nM | 3/3 |
| KSSQSVLYESRNKNSNA | DASTRES | GQYHRLPLS | 2.6 nM | 3/3 |
| KSSQSVHYESRWKNSVA | FASTRES | QQYHRLPLS | 110 nM | 3/3 |
| KSSQSVLYESRNLNSVA | TASTRES | QQYHRLPLS | no signal | 0/3 |
| KSSQSVQYESRNKNSVA | QASTRMS | QQYHRLPLS | 1.3 nM | 3/3 |
| KSSQSVLYESRNKNSVA | PASERES | QQYHRLPLS | no signal | 0/3 |
| KSQQSVLYESRNKNSVA | SASTRES | QPYHRLPLS | 650 pM | 3/3 |
| KSSQCVLYESRNKNSVA | EASHRES | QQYHRLPLS | 9.3 nM | 3/3 |
| KSSQSVLYESRNPNSVA | YASTRES | EQYHRLPLS | 27 nM | 3/3 |
| KSSQSVLYERRNKNSVA | PVSTRES | QQYHRLPLS | 78 µM | 1/3 |
| KSSQSVLYESRNKNSVS | EASTRES | KQYHRLPLS | 11 nM | 3/3 |
| KSSQSVLYESRNKLSVA | MASTRIS | QQYHRLPLS | 4.2 µM | 3/3 |
| KSSQSVLYESRNKNSVA | VASTREP | QYYHRLPLS | no signal | 0/3 |
| KSSTSVLYESRNKNSVA | PASTRIS | QQYHRLPLS | 120 µM | 1/3 |
| KSSQSVLYESRNKNSVA | KASTRES | QQEHRLPLS | 3.2 µM | 1/3 |
| KSSQSVLYESRNKNSVA | CASTRTS | QQYHRLPLS | 6.3 µM | 2/3 |
| KSSQSVLYEESNKNSVA | DASTRES | QQYHRLPLS | 830 pM | 3/3 |
| KQSQSVLYESRNKNSNA | AASTRES | QQYHRLPLS | 26 µM | 2/3 |
| KSSQSVLYESRNKNSVA | CASTRES | QQYHRLILS | no signal | 0/3 |
| KSSQSQLYESRNKRSVA | FASTRES | QQYHRLPLS | 47 nM | 3/3 |
| KSSQSPLYESRNKNSVA | AASTRVS | QQYHRLPLS | 670 pM | 3/3 |
| KSMQSVLYESRNKNSVA | IASTRES | QQQHRLPLS | 12 µM | 1/3 |
| KSRQSVLYESRNKNSVA | LASTRES | QQYHRLPLY | 25 nM | 3/3 |
| KSSQSYLYESRNKNSVA | NASTRES | QQYHRLPLS | 7.5 nM | 3/3 |
| KSSQSVLYESRNKNSVA | YASTREL | QQYHRLPLS | 3.5 nM | 3/3 |
| KSSQSQLYESRNKNSVA | RASTRES | QQYHRRPLS | no signal | 0/3 |
| KSSQSVLYESRNKNSVA | GASTRES | QQYHRLPLS | 990 pM | 3/3 |
| KSSQTVLYESRNKNSVA | LANTRES | QQYHRLPLS | 550 nM | 3/3 |
| KSSQSVCYISRNKNSVA | EASTRES | QQYHRLPLS | no signal | 0/3 |
| KSSQSVLYESRNKESVA | CASWRES | QQYHRLPLS | 4.0 µM | 3/3 |
| KSSQSVLYESNNKNSVA | AADTRES | QQYHRLPLS | 1.0 nM | 3/3 |
| KSSQSVLYESRNVNSVA | HASTMES | QQYHRLPLS | 270 nM | 3/3 |
| KSSQSVLYESRNKNSVI | GASTRES | QQYFRLPLS | 65 µM | 2/3 |
| KSSQSVLYESRNKSSDA | MASTRES | QQYHRLPLS | no signal | 0/3 |
| KMSQSVLYESRNKNSVA | TASTRES | QQYHRLPLS | 86 nM | 3/3 |
| KHSQSVLYRSRNKNSVA | LASTRES | QQYHRLPLS | 410 nM | 3/3 |
| KSSQSVVYESTNKNSVA | QASTRES | QQYHRLPLS | 1.5 nM | 3/3 |
| KSSQSVWYESRNKNSVA | AASTRES | QQYHRLPLS | 5.9 nM | 3/3 |
| KSSQSVLYESRQKNSVA | AASTRES | QQYHFLPLS | 4.9 nM | 3/3 |

Repeated from above, the 4 best binders with a signal in all replicates:

CDR-L1	CDR-L2	CDR-L3	Kd (apparent)	seen in
KSIQSVRYESRNKNSVA	EASTRES	QQYHRLPLS	530 pM	3/3
KSQQSVLYESRNKNSVA	SASTRES	QPYHRLPLS	650 pM	3/3
KSSQSPLYESRNKNSVA	AASTRVS	QQYHRLPLS	670 pM	3/3
KSSQSVLYEESNKNSVA	DASTRES	QQYHRLPLS	830 pM	3/3